Reference: patent US20200404921A1, “SOIL TREATMENT WITH METAM SALTS AND ONE OR MORE OF CALCIUM THIOSULFATE, CALCIUM CHLORIDE AND CALCIUM NITRATE” (Tessenderlo Kerley, Inc., priority 2018, published 2020)

Conditions: […], or 0.2% to 0.5%

[K+].[OH-] [KOH, Potassium hydroxide]
KOH concentration that prevents precipitation of diluted calcium thiosulfate, calcium chloride and/or calcium nitrate solutions in water: less than 1 % by weight
